Hits are enriched below; roughly 0.91% of the tested compounds scored in any of these assays.
FN deposition inh: fibronectin deposition inhibition; AH1F fibroblasts, Alexa488-fibronectin deposition fluorescence, overnight; inhibition, % at 12.6 µM; hit rate 0.086% among 350,000;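 active means mean inhibition across replicates of 30% or more, regardless of how many single replicates reach that level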;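 further: positive control wells lacked labelled fibronectin entirely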
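Assay system: AH1F fibroblast monolayer, labelled fibronectin deposition. Amount: 10000 cells per well. Also added: labelled fibronectin 24 nM. Compound: single-point pinned compound. Incubation: cell attachment 1 h, compound and FN exposure overnight. Detection: fluorescence after three HBSS washes, excitation 485 nm, emission 525 nm. Read-out: inhibition of fibronectin deposition signal.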
PGC1a acetyl inh: PGC1a acetylation modulation, inhibitor mode. U2OS PGC1a acetylation, AlphaScreen anti-acetyl-lysine; with virally co-expressed GCN5 acetyltransferase. inhibition, % at 15.6 µM. hit rate 0.17% among 350,000. AID 651687;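 active means every replicate shows inhibition of at least 40%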;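 further: 0% = neutral control wells and 100% = positive control wells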
Statin myotox sup: protects C2C12 myotubes from simvastatin toxicity. ATP luminescence, 48 h; scaled: DMSO 0, geranylgeraniol control 100. rescue of ATP level, % at 7.49 µM. hit rate 0.78% among 330,000;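 active means mean ATP rescue above about 67%, or every replicate alone reaching that limit, limit read from the data, passing the limit was not always enough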;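 further: myotubes were challenged with 10 µM simvastatin during compound exposure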
iPSC survival up: increases survival of single human iPS cells. hiPSC single-cell survival, ATPlite luminescence; 100% = ROCK inhibitor wells, 0% = DMSO. survival enhancement, % at 20 µM. hit rate 0.044% among 360,000. AID 602274; in the data active means survival enhancement above about 18%;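 further: cells exposed to compounds for 16 hours before the ATP read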
Yeast UUG start: alters start codon recognition fidelity in yeast. S. cerevisiae UUG-firefly luciferase reporter, luminescence/redox ratio. AID 602363. activity score, % at 18.7 µM. hit rate 0.13% among 350,000;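 active = replicate mean at a twofold rise or more, about +100% in these data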;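 note: firefly luciferase made from a UUG start codon reports start codon fidelity; reporter light over untreated wells divided by growth signal over untreated wells; some hits fall short of that in this replicate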
An asterisk follows results filed as active; · = not tested or not shown.

SMILES	FN deposition inh	PGC1a acetyl inh	Statin myotox sup	iPSC survival up	Yeast UUG start
O=C(NCc1ccc(F)cc1)c1cccc(S(=O)(=O)N2CCCC2)c1	·	8.7	13.1	4.0	-18.6
Cc1cc(=S)[nH]c2c(C)cccc12	·	-6.1	74.2*	10.0	-25.3
CCOC(=O)CC(=O)Nc1cc(Cl)ccc1O	·	4.9	84.2*	5.7	-12.0
COc1ccc(Cl)cc1NC(=O)CC(C)=O	·	-4.4	91.7*	-0.9	-5.1
COc1ccc(Cl)cc1NC(=O)COC(C)=O	-6.9	·	·	-0.7	·
O=C(O)c1cccc(NC(=O)C2CCCO2)c1 (stereo unspecified)	·	7.8	4.0	-0.6	-5.8
CCOC(=O)c1cccc(NC(=O)C2CCCO2)c1 (stereo unspecified)	·	20.1	101.7*	1.6	-15.5
CCOc1ccc2c(c1)nc(SCC(=O)c1ccc(Br)s1)n2C	-1.0	4.3	70.4*	-1.5	-23.6
CCOc1ccc2c(c1)nc(SCC(=O)c1cccs1)n2C	·	-11.0	·	-1.9	-20.4
C[C@H]1CN([C@@H](C)CO)C(=O)c2cccc(NC(=O)Nc3ccc4c(c3)OCO4)c2O[C@H]1CN(C)Cc1ccc(-c2ccccc2)cc1	14.3	-6.4	·	·	13.4
CCN(CC)C(=O)c1sc(N)c(C#N)c1C	·	-0.1	127.9*	1.8	-8.8
Cc1ccc(S(=O)(=O)NNC2=NCCCCC2)cc1	4.7	-2.3	92.2*	1.4	-15.8
O=S(=O)(NC1=NCCC1)c1ccc(F)cc1	5.1	39.2	106.8*	1.0	-13.8
O=C(CCCCC(=O)NN=Cc1ccccc1O)NN=Cc1ccccc1O	1.8	0.2	105.7*	-1.1	-23.1
CCCCCCCC(=O)N/N=C/c1cccnc1	·	-20.0	15.5	0.4	-11.8
CCCCCCCC(=O)N/N=C/c1ccc(Br)cc1	-15.6	-15.9	133.5*	1.7	-1.2
O=C(CSCC(=O)NN=Cc1ccccc1O)NN=Cc1ccccc1O	5.3	0.2	9.0	2.2	·
COc1ccccc1-c1cn(CC[C@H]2CC[C@@H](NC(=O)c3cnccn3)[C@@H](CO)O2)nn1	2.4	1.4	2.9	·	·
CCCN(C)C[C@@H]1Oc2cc(C3=CCCC3)ccc2S(=O)(=O)N([C@@H](C)CO)C[C@H]1C	·	-7.1	-31.0	·	·
CCCC(CCC(=O)Nc1ccc(C(=O)OCC)cc1)C(=O)O (stereo unspecified)	·	-1.6	105.5*	1.1	-7.2
CCCC(CCC(=O)Nc1ccc(C(=O)OC)cc1)C(=O)O (stereo unspecified)	·	8.3	-1.6	3.4	-14.8
C[C@@H]1CN([C@H](C)CO)C(=O)Cc2cc(NS(C)(=O)=O)ccc2O[C@H]1CN(C)Cc1ccncc1	·	4.9	20.5	·	-5.5
COC(=O)COc1cc(C)cc2oc(=O)c(CC(=O)OC)c(C)c12	·	8.1	108.4*	-0.4	-2.5
COC(=O)COc1cc(OCC(=O)OC)c2c(C)c(Cl)c(=O)oc2c1	5.4	·	·	1.1	·
O=C(NC1CCCCC1)N1[C@@H]2CNC[C@H]1C2c1ccc(-c2cccnc2)cc1 (stereo partly specified)	-5.1	-0.7	·	·	·

(continued)
SMILES	FN deposition inh	PGC1a acetyl inh	Statin myotox sup	iPSC survival up	Yeast UUG start
C/C=C/c1ccc([C@H]2[C@@H](CNS(C)(=O)=O)N(CC3CC3)[C@H]2CO)cc1	-5.9	1.1	8.3	·	-8.4
COc1cccc(CNC(=O)[C@@H]2[C@@H](CO)[C@@H]3Cn4c(cccc4=O)[C@H]2N3C(=O)C2CCCCC2)c1	-1.3	·	-10.0	·	·
O=S(=O)(c1ccccc1)N1CCCCN2[C@H](CO)[C@@H](c3ccc(C#CC4CCCC4)cc3)[C@H]2C1	4.3	-5.8	8.1	·	29.5
COc1ccccc1N1CCN(C(=O)c2cc(-c3ccc(F)cc3)[nH]c2C)CC1	-10.3	4.6	118.8*	-0.4	-0.2
C[C@H](CO)N1C[C@H](C)[C@@H](CN(C)C(=O)C2CCC2)Oc2cc(-c3cncnc3)ccc2S1(=O)=O	·	4.7	2.3	·	3.3
COc1ccc(NC(=O)N(C)C[C@@H]2Oc3ncc(C#C[C@@H](C)O)cc3C(=O)N([C@H](C)CO)C[C@@H]2C)cc1	·	0.3	13.4	·	-11.2
CC(C)C#Cc1ccc([C@@H]2[C@H](CO)N3C(=O)CN(C(=O)NC4CCCC4)C[C@@H]23)cc1	1.3	107.1*	·	·	·
COCC(=O)N1CC(=O)N2[C@@H](CO)[C@H](c3ccc(-c4ccncc4)cc3)[C@@H]2C1	-0.8	102.2*	·	·	·
Cn1c(CSc2ncn[nH]2)nc2ccccc21	·	-21.2	98.1*	4.8	-20.5
C[C@H]1CN([C@@H](C)CO)C(=O)c2cc(C#CC(C)(C)O)cnc2O[C@@H]1CN(C)C(=O)C1CCC1	·	100.7*	3.4	·	-4.4
Cc1ccc(-c2cnc3c(c2)C(=O)N([C@@H](C)CO)C[C@@H](C)[C@H](CN(C)C)O3)cc1	13.9	109.0*	16.0	·	-11.2
C[C@H](CO)N1C[C@H](C)[C@@H](CN(C)C(=O)C2CC2)Oc2ncc(Br)cc2C1=O	-15.1	5.9	1.8	·	-6.7
COc1ccc(-c2cnc3c(c2)C(=O)N([C@H](C)CO)C[C@@H](C)[C@@H](CN(C)C(=O)Nc2c(C)noc2C)O3)cc1	-8.1	43.5*	28.1	·	-5.1
C[C@@H]1CN([C@@H](C)CO)C(=O)c2cc(Br)cnc2O[C@H]1CN(C)C(=O)C1CC1	2.0	7.7	5.0	20.1*	13.5
COc1ccc(-c2cnc3c(c2)C(=O)N([C@H](C)CO)C[C@H](C)[C@H](CN(C)C(=O)NC(C)C)O3)cc1	·	6.2	0.0	·	-1.2
CCCC#Cc1ccc([C@H]2[C@H]3CN(C(=O)c4ccccc4)CC(=O)N3[C@H]2CO)cc1	·	4.9	·	·	·
CO[C@@H]1CN(C)C(=O)c2ccc(NC(=O)C3CC3)cc2OC[C@@H](C)N(C(=O)c2ccccc2)C[C@@H]1C	-13.0	-4.9	-3.2	·	13.7
COc1cc2c(c(OC)c1OC)CC(c1ccccc1)=C(c1ccccc1)CC2NC(=O)C(F)(F)F (stereo unspecified)	-2.1	·	·	·	·
Cc1noc(C)c1NC(=O)Nc1ccc2c(c1)CC(=O)N([C@H](C)CO)C[C@@H](C)[C@H](CN(C)Cc1ccccc1)O2	·	·	-3.3	·	-3.6
CCC(=O)Nc1ccc2c(c1)C(=O)N(C)C[C@@H](OC)[C@H](C)CN(C(=O)CC1CC1)[C@@H](C)CO2	-5.6	-13.2	5.9	·	-7.0
C[C@H](CO)N1C[C@H](C)[C@H](CN(C)C(=O)c2cccc(F)c2)Oc2ncc(-c3ccccc3)cc2C1=O	34.5*	-5.7	6.4	·	-2.0
COc1ccc(-c2cnc3c(c2)C(=O)N([C@H](C)CO)C[C@H](C)[C@@H](CN(C)C(=O)C2CC2)O3)cc1	·	111.1*	-7.4	·	36.9
COc1cccc(-c2cnc3c(c2)C(=O)N([C@H](C)CO)C[C@H](C)[C@H](CN(C)Cc2cccc(C)c2)O3)c1	-5.6	-1.6	116.8*	·	4.6
COc1ccc(-c2cnc3c(c2)C(=O)N([C@H](C)CO)C[C@H](C)[C@H](CN(C)S(=O)(=O)c2ccc(F)cc2)O3)cc1	-9.2	-25.5	101.8*	·	12.2
COc1cccc(-c2cnc3c(c2)C(=O)N([C@@H](C)CO)C[C@H](C)[C@@H](CN(C)Cc2ccccc2)O3)c1	·	-7.2	37.6	·	0.6

Pulled by structure from the entries so far, six records:
SMILES	FN deposition inh	PGC1a acetyl inh	Statin myotox sup	iPSC survival up	Yeast UUG start
COc1ccc(-c2cnc3c(c2)C(=O)N([C@H](C)CO)C[C@@H](C)[C@@H](CN(C)C(=O)Nc2c(C)noc2C)O3)cc1	-8.1	43.5*	28.1	·	-5.1
COCC(=O)N1CC(=O)N2[C@@H](CO)[C@H](c3ccc(-c4ccncc4)cc3)[C@@H]2C1	-0.8	102.2*	·	·	·
O=S(=O)(c1ccccc1)N1CCCCN2[C@H](CO)[C@@H](c3ccc(C#CC4CCCC4)cc3)[C@H]2C1	4.3	-5.8	8.1	·	29.5
C/C=C/c1ccc([C@H]2[C@@H](CNS(C)(=O)=O)N(CC3CC3)[C@H]2CO)cc1	-5.9	1.1	8.3	·	-8.4
CO[C@@H]1CN(C)C(=O)c2ccc(NC(=O)C3CC3)cc2OC[C@@H](C)N(C(=O)c2ccccc2)C[C@@H]1C	-13.0	-4.9	-3.2	·	13.7
C[C@H](CO)N1C[C@H](C)[C@H](CN(C)C(=O)c2cccc(F)c2)Oc2ncc(-c3ccccc3)cc2C1=O	34.5*	-5.7	6.4	·	-2.0

Screens from PubChem BioAssay.
